This is an account of results in article PMC11823609, “Advancements in the fight against globally distributed OXA-48 carbapenemase: evaluating the new generation of carbapenemase inhibitors” (Antimicrobial Agents and Chemotherapy, 2025).

Protein sequences, listed by entry. Tags and fused reporters are not part of them. Residues count along the entry.
UniProt Q6XEC0, 23-265 limits assumed: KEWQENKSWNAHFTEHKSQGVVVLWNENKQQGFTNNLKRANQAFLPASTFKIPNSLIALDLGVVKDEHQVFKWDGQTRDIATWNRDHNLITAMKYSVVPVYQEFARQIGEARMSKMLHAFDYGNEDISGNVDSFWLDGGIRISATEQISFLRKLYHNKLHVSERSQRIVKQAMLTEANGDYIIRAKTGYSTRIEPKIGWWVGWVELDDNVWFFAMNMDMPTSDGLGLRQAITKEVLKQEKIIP

pKd, pKi: −log10 of the molar value.

By pKi is commonly meant the negative decadic logarithm of the Ki, by convention in mol/L. High values mean a small Ki, low ones a large Ki. The pKd is −log10 of the Kd, conventionally taken in molar units. A high value points to a small Kd.

Assay [1] has as its target T1, OXA-48 (Klebsiella pneumoniae, UniProt Q6XEC0). The assay can be described thus: Steady-state inhibition constant (Ki app), nitrocefin reporter. The class given is biochemical. Details: These primers amplified the blaOXA-48 gene without the signal peptide; GST (glutathione S-transferase, pGEX-6P-1) (N, cleaved yes); made in house; host or cells: E. coli BL21. Particulars: nitrocefin 300 µM reporter, 25 °C, pH 7.4.

In assay [2] the target is T1, OXA-48. In words: Dissociation rate (koff) by jump dilution; t1/2 and Kd. As to conditions: koff/kon. The class given is biochemical. Also on record: These primers amplified the blaOXA-48 gene without the signal peptide; GST (glutathione S-transferase, pGEX-6P-1) (N, cleaved yes); made in house; host or cells: E. coli BL21.

At OXA-48 [1], `O=C(NNC(=O)[C@@H]1CC[C@@H]2CN1C(=O)N2OS(=O)(=O)O)[C@@H]1CCCNC1` [Zidebactam, zidebactam] had a pKi of less than 3.10. Moreover, the pKd at OXA-48 [2] was 5.86.
